Measurements: ChEMBL document CHEMBL5726084, “Substituted 2-azabicycles and their use as orexin receptor modulators” (2017)

Test: Receptor Radioligand Binding Assay: Human Embryonic Kidney 293 cells (HEK293) stably expressing rat orexin 1 receptor (Genebank accession number NM_001525) or Chinese ovary cells (CHO) stably expressing human orexin 1 receptor (Genebank accession number NM_001526) were grown to confluency in DMEM (Hyclone, cat # SH30022), 10% FBS, 1× Pen/Strep, 1× sodium pyruvate, 10 mM HEPES, 600 μg/mL G418 and DMEM/F12 (Gibco, Cat #11039), 10% FBS, 1× Pen/Strep, 600 μg/mL G418 media, respectively on 150 cm2 tissue culture plates, washed with 5 mM EDTA in PBS (HyClone Dulbecco's Phosphate Buffered Saline 1× with Calcium and Magnesium, Cat # SH30264.01, hereafter referred to simply as PBS) and scraped into 50 ml tubes. After centrifugation (2K×G, 5 min at 4° C.), the supernatant was aspirated and the pellets frozen and stored at −80° C. Cells were resuspended in PBS in the presence of 1 tablet of protease inhibitor cocktail (Roche, Cat. #11836145001) per 50 mL. Each cell pellet from a 15 cm plate was resuspended in 10 mL, stored on ice, and homogenized for 45 sec prior to addition to the reactions. Competition binding experiments in 96 well polypropylene plates were performed using [3H] […]

Cc1ccc(-n2nccn2)c(C(=O)N2C(C)C3CC(Oc4ccc(C(F)(F)F)cn4)C2C3)n1 (single isomer, unassigned; form 1) gave a Ki greater than 10 µM.
Molecule Cc1ccc(-n2nccn2)c(C(=O)N2C(C)C3CC(Oc4ccc(C(F)(F)F)cn4)C2C3)n1 (single isomer, unassigned; form 2) has a Ki greater than 10 µM.
